The entries are a selection whose mix differs from that of the whole data set. Inconclusive results are not listed. The source made the active and inactive calls. The call rests on the fitted dose curve; in most records, active means well fitted activation curve with a large enough effect; inconclusive means small, poorly fitted or top-dose-only effect; inactive means flat fitted curve, though single readings scatter.
On the % scale 0 is the no-effect control and ±100 the full control effect.

A short description of the assay: qHTS assay to identify small molecule phospholipidosis (PLD) inducers. The note with it: HepG2 phospholipidosis, LipidTOX Red imaging, 24 h; at 38.3 µM (top of the series) unless noted. The text has this:
National Center for Advancing Translational Sciences [NCATS]
Drug-induced Phospholipidosis (PLD) caused by cationic amphiphilic drugs is characterized by the appearance of unicentric or multicentric-lamellar bodies when viewed under electron microscope. Electron microscopy is the gold standard method for PLD detection, however, this method is time-consuming and labor intensive, making it unsuitable for evaluating a large set of compounds. A cell-based phospholipidosis assay has been developed using the LipidTox reagent in HepG2 cells and miniaturized into a 1536-well plate format. Drug induced phospholipid accumulation is stained with the LipidTox dyes in red color which then is determined using an automated high content screening system.
HepG2 cells are dispensed at 900 cells/3 uL/well into Collagen I-coated 1536-well black-wall/clear-bottom assay plates (Greiner Bio-One, Monroe, NC) using the Multidrop Combi 8 channel dispenser (Thermo Fisher, Waltham, MA, USA). The assay plates are incubated at 37 C for 4 hours to allow the cell attachment. 3 uL of 1:500 LipidTOX Red dye is added using the dispenser, and then 23 nL compounds are added via a Wako Pintool station (Wako Automation, San Diego, CA). […]
For fixations, 4 uL of 8% paraformaldehyde fixative solution containing 10 ug/mL Hoechst 33342 in Dulbecco's phosphate-buffered saline (DPBS) is added using a Kalypsys washer/dispenser (Kalypsys, San Diego, CA, USA). […] The fluorescence intensities (595 nm excitation, 615 nm emission for LipidTOX; 352 nm excitation, 461 nm emission for Hoechst 33342) are measured using an ImageXpress Micro Widefield High Content Screening System (Molecular Devices, Sunnyvale, CA, USA) with a 20x Plan Fluor objective. Images are acquired for one site in each well and analyzed with the MetaXpress software (Molecular Devices) using the Transfluor module. Several algorithmic outputs, such as pit count per well, pit count per cell, pit integrated intensity per well, and pit integrated intensity per cell, are used for quantitative image analysis for PLD.
For orientation: In qHTS, concentration-response curves come from the screen itself.
As for `CCC(=O)N(c1ccccc1)C1(COC)CCN(CCn2nnn(CC)c2=O)CC1`, the PLD induction is inactive: -3.31% [at 78.4 µM].
Then `CN(CCCl)CCCl`, with inactive: 7.19%; and `CCC(=O)N(c1ccccc1)C1CCN(CCc2ccccc2)CC1`, with inactive: 0.919%.

The record behind these values is PubChem BioAssay AID1259344 (Tox21, 2017).
